Assay [1] deals with EGFR-C797S cells within PC9-(EGFR-T790M) cells. The experiment in a line: Colony forming assay, EGFR-C797S barcoded PC9-(EGFR-T790M) cells. Format: cell-based. To be noted: sorafenib 5 μM co-treatment with osimertinib 1 μM, 14 days; FIG. 3B.
The subject of assay [2] is Parental PC9 cells (EGFR-T790 wild-type) containing the EGFR-C797S mutation. As to the kind of experiment: CRISPR-barcoding qPCR: EGFR-C797S barcode in parental PC9 cells (EGFR-T790 wild-type). To be noted: PC9 cells not previously selected with other EGFR TKIs; osimertinib 1 μM, sorafenib 5 μM, nine days; FIG. 12. The class given is cell-based. From the text: (§1) The set of silent mutations is designed to enable PCR specificity and to avoid recognition by the corresponding sgRNA used to cleave the endogenous sequence. […] Immediately after transfection, the cells were pooled in the same flask.
(§2) gDNA was extracted using the NucleoSpin Tissue kit (Macherey-Nagel). To avoid potential amplification from ssODN molecules not integrated in the correct genomic locus, one of the two primers was designed to target the endogenous genomic sequence flanking the region sharing homology with the ssODNs.
In general terms: In qPCR the cycle at which signal appears reflects the starting amount.

Assay [3] has as its system LIM1215 colon cancer cells containing the EGFR-G465R mutation. The experiment in a line: CRISPR-barcoding qPCR: EGFR-G465R barcode in LIM1215 colon cancer cells. Format: cell-based. To be noted: sorafenib 1 or 5 μM with cetuximab 20 μg/ml, six days; FIG. 13.
Excerpt: (§3) Cells were transfected with a Nucleofector II device (Lonza) using the Amaxa Nucleofector kit (Lonza) and electroporation program recommended by the manufacturer.
as §1, §2

The test system of the next assay is MAPK, AKT and mTOR. The experiment in a line: Immunoblot, downstream pathways regulated by EGFR in PC9 cells. The class given is cell-based. To be noted: after three days of sorafenib (5 μM) treatment, FIG. 5. (A western blot detects proteins with antibodies after separation by electrophoresis.)
Assay [4] concerns EGFR-C797S cells within PC9-(EGFR-T790M) cells. As to the kind of experiment: CRISPR-barcoding qPCR: EGFR-C797S barcode in PC9-(EGFR-T790M) cells. The class given is cell-based. The following applies: sorafenib 5 μM co-treatment with osimertinib 1 μM, nine days; FIG. 3A.
Excerpt: as §1, §2

Assay [5] relates to PC9 cells containing the EGFR-T790M mutation. The experiment in a line: CRISPR-barcoding qPCR: fraction of EGFR-T790M barcode in PC9 cells in the presence of gefitinib. Format: cell-based. The following applies: 5 days, FIG. 1A.
Excerpt: as §3, §1, §2, §3, §1

The test system of the next assay is EGFR. The experiment in a line: Immunoblot, EGFR expression in PC9 cells. Format: cell-based.
The next assay relates to colorectal carcinoma. To be noted: treatment of colorectal carcinoma; Cunningham et al 2004; cited from earlier work.

For the molecule `CNC(=O)c1cc(Oc2ccc(NC(=O)Nc3ccc(Cl)c(C(F)(F)F)c3)cc2)ccn1` [sorafenib], the “amplification of EGFR-C797S cells (colony forming assay)” value in assay [1] was “blocked”. In assay [2], the “enrichment of EGFR-C797S cells induced by osimertinib (qPCR)” value is listed as “strongly inhibited the enrichment”. Besides, in assay [3], the “enrichment of the EGFR-G465R barcode induced by cetuximab (qPCR)” value is recorded as “inhibited by sorafenib in a dose-dependent manner”. Also, the “downstream pathways regulated by EGFR, including MAPK, AKT and mTOR” value in the assay with MAPK, AKT and mTOR is on record as “inhibition”. The “amplification of EGFR-C797S cells (qPCR)” value in assay [4] is reported as “blocked”. Further, the “enrichment of PC9 cells containing the EGFR-T790M mutation (EGFR-T790M barcode, qPCR from gDNA)” value in assay [5] is “dose-dependently prevented the enrichment”. Besides, the EGFR expression entry in the assay with EGFR (3 days, sorafenib 5 μM or SC-1 20 μM, FIG. 11B) was “down-regulated”; with EGFR (after three days of sorafenib (5 μM) treatment, FIG. 5), “dramatic decrease”.

As for cetuximab, the clinical response rate entry in the assay on colorectal carcinoma was “about 11%”.
